Source: patent US8426383B2, “Anti-aging composition for external use comprising low and high molecular weight hyaluronic acids and the polysaccharides extracted from root bark of Ulmus davidiana” (Bioland Ltd., priority 2008, dated 2013)

Test system: Caco-2 cells

Penetration into the cell layer	Substance
hardly penetrated	hyaluronic acid [high-molecular weight hyaluronic acid]
16.0%	hyaluronic acid [low-molecular weight hyaluronic acid]
